# Earlier results as cited in patent publication US20080242544A1, “Phytoactive Composition” (priority 2004, published 2008).
# Settings: Table 5, no pH given; cited from earlier work
substance,measurement,value
MCPB,Log Pow,2.4
